# Data from PubChem BioAssay AID1463 (National Center for Advancing Translational Sciences (NCATS), 2008).
# This is a selection; strong and weak results do not stand in their true shares. Results filed as inconclusive are left out. Active and inactive are the calls of the source. The call rests on the fitted dose curve; in most records, active means well fitted curve in the direction sought with a large enough effect; inconclusive means small, poorly fitted or top-dose-only effect; inactive means flat fitted curve, though single readings scatter.
# Experiment: Counterscreen qHTS for Inhibitors of Tau Fibril Formation, Fluorescence Polarization; further: nearly all actives have a fitted effect of over 55% in size
# Settings: tau K18 P301L (four-repeat tau fragment) Alexa594 fluorescence, heparin fibrillization; series mostly up to 57.7 µM; activity change, negative = decrease: at the top concentration
# On the % scale 0 is the no-effect control and ±100 the full control effect; potency means the concentration at half of the fitted maximal effect; tags describe the fitted curve by direction and shape or compound fluorescence and quenching.
SMILES,"activity change, negative = decrease",Potency
COc1ccc2nc(NP(=O)(c3ccccc3)c3ccccc3)sc2c1,inactive: -3.1%,
COc1cc(I)ccc1[As](=O)(O)O,inactive: -1.93%,
Cc1c2c(nc3ccccc13)SC(C(Cl)Cl)C2 (centres undefined),inactive: -9.4%,
O=C(OC1CN2CCC1CC2)C12CC3CC(CC(C3)C1)C2 (centres undefined),inactive: 3.26%,
Cc1cc(=O)[nH]c(N[N+](=O)[O-])n1,inactive: -5.24%,
COc1ccc(N/C(=N/P(=O)(N2CCOCC2)N2CCOCC2)N2CCOCC2)cc1,inactive: -11.5%,
Cc1ccc(OP(=O)(Nc2ccc([N+](=O)[O-])cn2)Oc2ccc(C)cc2)cc1,inactive: 6.22%,
Cc1ccc2nc3c(c(C)c2c1)CC(C(Cl)Cl)S3 (centres undefined),inactive: -15.9%,
O=[As](O)(c1ccc(O)cc1)c1ccccc1O,inactive: -4.81%,
C[As](=O)(O)c1cccc(C(=O)O)c1,inactive: 3.35%,
CCN(CC)C(=S)SC(NC=O)C(Cl)(Cl)Cl (centres undefined),inactive: -10.7%,
CC(C)NC(=O)NP(=O)(Oc1ccccc1)Oc1ccccc1,inactive: 8.44%,
O=[N+]([O-])c1cc([N+](=O)[O-])c(-c2ccn[nH]2)s1,inactive: -13.6%,
ClCCSc1nnc(-c2cccnc2)o1,inactive: 7.2%,
CC(C)c1ccc(OP(=O)(Nc2ccccn2)Oc2ccccc2F)cc1 (centres undefined),inactive: -6.75%,
Cc1cc(SC(NC(=O)c2ccccc2)C(Cl)(Cl)Cl)nc(C(C)C)n1 (centres undefined),inactive: -15.4%,
CCOC(=O)Nc1ccc([As](=O)(O)O)c(O)c1,inactive: -7.42%,
O=P(Nc1ccccn1)(c1cccc2ccccc12)c1cccc2ccccc12,inactive: 9.28%,
Cc1cc(SC(NC=O)C(Cl)(Cl)Cl)ncn1 (centres undefined),inactive: -5.63%,
O=[N+]([O-])c1ccc(Nc2ccc(Oc3ccc([N+](=O)[O-])cc3[N+](=O)[O-])cc2)c([N+](=O)[O-])c1,inactive: -24.8%,
CCOC(=O)Nc1cccc([As](=O)(O)O)c1,inactive: -3.3%,
O=C(COc1ccccc1)OC1CN2CCC1CC2 (centres undefined),inactive: -5.98%,
COP1(=S)c2c(C)nn(CCC#N)c2N=C(c2ccc(F)cc2)N1C (centres undefined),inactive: 6.14%,
CCC(C)N(CC(C)C)C(=S)SC(NC(C)=O)C(Cl)(Cl)Cl (centres undefined),inactive: -8.87%,
CCOC(=O)c1ccc(NC(=O)C(C)(CCl)SC)cc1 (centres undefined),inactive: -2.66%,
Clc1n[nH]nc1-c1nn[nH][15n]1,inactive: -6.26%,

SMILES,"activity change, negative = decrease",Potency
CC(C)(C)C(=O)NC(Sc1ncccn1)C(Cl)(Cl)Cl (centres undefined),inactive: -5.06%,
O=P1(Nc2ccccn2)COc2ccccc2OC1,inactive: 1.36%,
CN(CCCl)Cc1cc(Cl)c(NC2=NCCN2)c(Cl)c1,,inactive
CCOP(=O)(Nc1ccc(C)cn1)OCC,inactive: -0.211%,
CC(C)/C=N\N=C(\N)N[N+](=O)[O-],inactive: 1.76%,
O=[As](O)(c1ccccc1Br)c1ccccc1Br,inactive: -8.56%,
CN(C)C1(CNC(=O)c2ccc(S(C)(=O)=O)cc2)CCCCC1,inactive: 0.0916%,
O=C(/C=C/c1ccccc1)OC1CN2CCC1CC2 (centres undefined),inactive: -2.83%,
Cc1nn(-c2ccccc2)c2c1P(=O)(N1CCOCC1)N(C)C(c1ccccc1)=N2 (centres undefined),inactive: 1.53%,
CC1CCC(C(C)C)C(OP(=O)(Nc2ccccn2)c2ccccc2)C1 (centres undefined),inactive: -1.34%,
Nc1cccc([As](=O)(O)c2ccccc2)c1,inactive: -14.8%,
O=P1(Nc2ccc(Br)cn2)COc2ccccc2OC1,inactive: 8.91%,
Cc1ccc(OCC(=O)OC2CN3CCC2CC3)cc1 (centres undefined),inactive: -17.7%,
O=[As](O)(c1cccs1)c1cccs1,inactive: 5.17%,
O=P1(Nc2ncccn2)COc2ccccc2OC1,inactive: 4.91%,
Nc1ccccc1[As](=O)(O)c1ccccc1,inactive: -6.13%,
O=C(O)COc1ccc([As](=O)(O)O)cc1[N+](=O)[O-],inactive: 2.14%,
CCOP1(=S)c2c(C)nn(CCC#N)c2N=C(c2ccccc2F)N1C (centres undefined),inactive: -1.27%,
O=P(Nc1nccs1)(c1ccccc1)c1nc2ccccc2s1 (centres undefined),inactive: -9.48%,
O=P(Nc1nccs1)(Oc1ccccc1)Oc1ccccc1,inactive: 2.04%,
CCOP1(=S)c2c(C)nn(CCC#N)c2N=C(c2ccc(F)cc2)N1C (centres undefined),inactive: -2%,
CN(C(=O)Cc1ccccc1)[C@@H]1CC[C@]2(CCCO2)C[C@H]1N1CCCC1,,inactive
O=[N+]([O-])c1ccc2c(c1)nnn2O,inactive: -4.58%,
NC(=O)Nc1ccc([As](=O)(O)O)cc1,inactive: 9.79%,
O=[N+]([O-])CC(O)c1ccc([N+](=O)[O-])cc1 (centres undefined),inactive: -18.7%,
O=[As](O)(c1cccc(O)c1)c1cccc(O)c1,inactive: -2.38%,

SMILES,"activity change, negative = decrease",Potency
Cc1cccc(OCC(=O)OC2CN3CCC2CC3)c1 (centres undefined),inactive: 7.25%,
O=C(OC1CN2CCC1CC2)c1ccc(Cl)cc1 (centres undefined),inactive: -6%,
CN(C(=O)Cc1ccc(Cl)c(Cl)c1)[C@@H]1CC[C@]2(CCCO2)C[C@H]1N1CCCC1,,inactive
COc1cc(C(=O)NCC2(N3CCOCC3)CCCCC2)cc(Cl)c1OC(C)C,inactive: -4.52%,
O=[As](O)(O)c1cccnc1,inactive: 1.7%,
COc1cc(C2NCCC3(OCCO3)C2(C)C)cc(OC)c1OC (centres undefined),inactive: -0.16%,
CCOP(=O)(Nc1cccc2ccccc12)OCC,inactive: -4.46%,
Cc1ccc(NCCc2c([N+](=O)[O-])cc([N+](=O)[O-])cc2[N+](=O)[O-])cc1,,active: 12.6 µM [quencher]
Nc1cccc2c([As](=O)(O)O)cccc12,inactive: -18.2%,
CCCOP(=S)(Nc1nc(N)cc(=O)[nH]1)OCCC,inactive: -12.6%,
CC(C)(C)C(=O)NC(Sc1ccccc1)C(Cl)(Cl)Cl (centres undefined),inactive: -8.51%,
O=P1(Nc2nc3ccc(Cl)cc3s2)COc2ccccc2O1 (centres undefined),inactive: -9.75%,
CCOc1ccc(C2=NCC(CBr)S2)cc1 (centres undefined),inactive: 1.26%,
CC(=O)Nc1ccc([As](=O)(O)O)c(O)c1,inactive: -17.1%,
CC(=O)Nc1ccc(Oc2c([N+](=O)[O-])cc([N+](=O)[O-])cc2[N+](=O)[O-])cc1,inactive: -6.8%,
C[C@@H]1C=CCP(=O)(Oc2ccccc2)O1 (some centres undefined),inactive: -4.08%,
C[C@H]1OP(=O)(Oc2ccccc2)C[C@@H]2O[C@@H]21 (some centres undefined),inactive: 3.07%,
c1ccc(-c2nn[nH]n2)c(-c2nn[nH]n2)c1,inactive: -9.72%,
Cc1ccc(NP(=O)(Oc2cccc(C)c2)Oc2cccc(C)c2)nc1,inactive: 8.49%,
CCOC(=O)NC(Sc1ccccc1)C(Cl)(Cl)Cl (centres undefined),inactive: -4.87%,
CCNC(=S)/N=C(\N)N[N+](=O)[O-],inactive: -4.92%,
O=C(NC1CCS(=O)(=O)C1)NP(=S)(Oc1ccccc1)Oc1ccccc1 (centres undefined),inactive: -12.6%,
Cc1ccccc1OP(=O)(Nc1ccccn1)Oc1ccccc1C,inactive: -9.38%,
CN(C)C(=O)Oc1noc2ccccc12,inactive: 8.03%,
CCC(=O)N1C2C3N(C(=O)CC)C1C1N(C(=O)CC)C(C(N1C(=O)CC)N3C(=O)CC)N2C(=O)CC,inactive: 2.86%,
COC(=O)c1cc2c(s1)N=C(c1ccccc1)N(C)P2(=O)N1CCOCC1 (centres undefined),inactive: 1.72%,

SMILES,"activity change, negative = decrease",Potency
CC(=O)NC(SC(=S)N(CC(C)C)CC(C)C)C(Cl)(Cl)Cl (centres undefined),inactive: -9.21%,
Cc1ccc(OP(=O)(Nc2ccccn2)Oc2ccc(C)cc2)cc1,inactive: 2.32%,
CN(C(=O)Cc1ccccc1)[C@H]1CC[C@@]2(CCCO2)C[C@@H]1N1CCCC1,inactive: -0.617%,
O=P(Nc1nc2ccccc2s1)(c1ccccc1)c1ccccc1,inactive: -10.9%,
C[C@H]1OP(=O)(Oc2ccccc2)[C@H](O)[C@H](O)[C@H]1N=[N+]=[N-] (some centres undefined),inactive: 3.84%,
O=P(Nc1ccccn1)(c1ccc(Br)cc1)c1ccc(Br)cc1,inactive: -1.92%,
O=C(OC1CN2CCC1CC2)c1cccc(Cl)c1 (centres undefined),inactive: 7.56%,
Nc1ccc([As](=O)(O)c2ccc([N+](=O)[O-])cc2)cc1,inactive: -11.5%,
C(Cc1nn[nH]n1)Cc1nn[nH]n1,inactive: -5.2%,
O=[As](O)(c1ccccc1)c1ccc(O)cc1,inactive: 0.136%,
CC(=O)NC(SC(=S)N(C)C)C(Cl)(Cl)Cl (centres undefined),inactive: 0.795%,
O=[N+]([O-])c1ncn(CCn2cnc([N+](=O)[O-])n2)n1,inactive: -11.4%,
c1nnnn1CCn1cnnn1,inactive: -6.36%,
CC(C)C(=O)NC(Sc1ccccc1)C(Cl)(Cl)Cl (centres undefined),inactive: -6.99%,
O=P(Nc1nccs1)(c1ccccc1)c1ccccc1,inactive: 3.1%,
Cc1ccc(NP(=O)(Oc2ccccc2)Oc2ccccc2)nc1,inactive: 3.18%,
CCc1nc2c(n1)c1c(non1O)c1c2no[n+]1[O-],inactive: 22.5%,
O=[N+]([O-])c1cc([N+](=O)[O-])c(CCNc2ccccc2)c([N+](=O)[O-])c1,,active: 3.16 µM [quencher]
O=[N+]([O-])c1cccc2n[nH]nc12,inactive: -1.89%,
CC(=O)N1C2C3N(C(C)=O)C1C1N(C(C)=O)C(C(N1C(C)=O)N3C(C)=O)N2C(C)=O,inactive: 6.52%,
COc1ccc(C2=NCC(CBr)S2)cc1 (centres undefined),inactive: -4.92%,
CC1CCN(C(=O)Oc2c(Cl)cc(Cl)c3cccnc23)CC1,inactive: -14.9%,
CC(=O)C1=CCCC2CCC1N2 (centres undefined),,inactive
CC(C)=N/N=C(\N)N[N+](=O)[O-],inactive: 6.19%,
CN(C)C(=O)OCCc1n(C)cc[n+]1C,inactive: 3.83%,
CCN(/C(=N/P(=O)(N1CCOCC1)N1CCOCC1)N1CCOCC1)c1ccc(OC)cc1,inactive: -0.551%,

SMILES,"activity change, negative = decrease",Potency
Nc1ccc([As](=O)(O)c2ccc(N)cc2)cc1,inactive: -1.63%,
O=C(Nc1cc([As](=O)(O)O)ccc1O)c1ccccc1,inactive: -4.53%,
O=C(O)CNc1ccc([As](=O)(O)O)cc1,inactive: -4.26%,
O=[N+]([O-])c1cccc(NC2=NCC(CBr)S2)c1 (centres undefined),inactive: -5.69%,
O=[N+]([O-])c1ncn(CCn2ncnc2[N+](=O)[O-])n1,inactive: -2.8%,
CC(C)(C)C(=O)NC(Sc1ccncn1)C(Cl)(Cl)Cl (centres undefined),inactive: 3.99%,
CCOP(=O)(Nc1ccccc1)OCC,,inactive
Cc1cc(SC(NC(=O)c2ccc(F)cc2)C(Cl)(Cl)Cl)ncn1 (centres undefined),inactive: -3.16%,
Cc1ccc(NP(=O)(Oc2ccccc2F)Oc2ccccc2F)nc1,inactive: -1.6%,
O=P(Nc1nc2ccc(Cl)cc2s1)(c1ccccc1)c1ccccc1,inactive: -23.4%,
O=C(O)c1ccccc1[As](=O)(O)O,inactive: -21.8%,
CC(=O)Nc1ccc([As](=O)(O)O)cc1,inactive: 1.79%,
Nc1cccc2ccc([As](=O)(O)O)cc12,inactive: -15.4%,
CCN(N=Nc1nonc1N)c1nonc1N,inactive: -7.18%,
Clc1ccc(Cl)c(NC2=NCC(CBr)S2)c1 (centres undefined),inactive: -3.42%,
CN1CCCC(OC(=O)C(c2ccccc2)c2ccccc2)C1 (centres undefined),inactive: -1.11%,
COc1ccccc1OP(=O)(Nc1ccc(C)cn1)Oc1ccccc1OC,inactive: -3.47%,
Cc1ccc(OP(=O)(Nc2nccs2)Oc2ccc(C)cc2)cc1,inactive: -13%,
Cc1ccc(N/C(=N/P(=O)(N2CCOCC2)N2CCOCC2)N2CCOCC2)cc1,inactive: -1.19%,
NC(=O)c1cc([N+](=O)[O-])cc([N+](=O)[O-])c1N,inactive: -3.09%,
Oc1ccccc1CNc1ccccn1,inactive: 3.71%,
Cc1c2non([O-])c-2c(C)[n+](=O)[n+]1[O-],inactive: -22.8%,
O=C(NC(Sc1ccncn1)C(Cl)(Cl)Cl)c1ccccc1 (centres undefined),inactive: -0.994%,
CC(C)CC(=O)NC(Sc1ccc(Cl)cc1)C(Cl)(Cl)Cl (centres undefined),inactive: -10.1%,
Nc1cc(N)c2nonc2c1[N+](=O)[O-],inactive: 3.01%,
